{
  "source": "patent US9724544B2",
  "about": "“Vitamin D promoting sunscreen” (priority 2009, dated 2017)",
  "origin": "cited, not measured here",
  "details": "approximately 295 to 315 nm; cited from earlier work",
  "note": "Only a part of the results on these compounds is given; other tests are left out.",
  "data": [
    {"substance": "triethanolamine salicylate", "values": [
      {"measurement": "absorption in the vitamin D producing range", "result": "high percentage"}
    ]}
  ]
}
